Patent US20170071975A1, “COMPOSITIONS AND METHODS FOR TREATING DEPRESSIVE DISORDERS” (Steerwasher, LLC, priority 2014, published 2017)
“Also recorded” adds a separate entry of the source.

Tests used:
[1] = tested on: patients with treatment-resistant depression; test: Blinded, randomized placebo-controlled crossover trial; 21-point Hamilton Depression Rating Scale (HDRS/HRDS); format: in vivo, human
Excerpt: (§1) Primary endpoint was the change on the 21-point Hamilton Depression Rating Scale (HRDS).
(§2) This study was designed as a randomized, placebo-controlled crossover pilot clinical trial. […] The order of the session was randomly assigned by a random number generator. Other than the gas mixture administered, both sessions were indistinguishable from each other in setting, setup, and monitoring.
Patients were recruited from an existing database of treatment-resistant depression patients administered by the Washington University Department of Psychiatry as well as from the “Volunteers for Health” patient pool within the Washington University School of Medicine. […] Patients were instructed not to suspend their standard of care treatment for major depression. Patients were required to maintain a stable medication regiment without changes for 4 weeks prior to initiation of the study and continue on the same dose throughout.
(§3) The gas mix was administered via a standard anesthesia facemask through tubing connected to an anesthesia machine. A small sample connector line was inserted into the facemask allowing the measurement of inhaled and exhaled gas concentrations. Total gas flow was between 4-8 L/min. Patients were monitored during and after the treatment according to American Society of Anesthesiologists standard which includes continuous 3-lead ECG, pulsoximetry, non-invasive blood pressure and end-tidal CO2 under the supervision of an attending-level anesthesiologists. After the one-hour treatment session, patients were transferred and monitored for 2 hours. A study team physician determined if the patients met criteria for discharge before patients were discharged.
(§4) Outcomes were assessed at six time points for each patient (three per session; two sessions): within each session at baseline, 2 hours, and 24 hours after treatment. Primary study endpoint was the change on the 21-point Hamilton Depression Rating Scale (HDRS). Secondary endpoints included a change on the Quick Inventory of Depressive Symptoms Self Report (QIDS-SR) scale. At baseline, the Brief Psychiatric Rating Scale (BPRS) was also administered. Psychiatric safety endpoints were assessed via standard scales for psychosis and the Columbia suicide scale. Other safety endpoints included cardiovascular, respiratory and central nervous system adverse events determined by hemodynamic and respiratory monitoring.
The primary outcome was analyzed with a mixed effects repeated measures linear model that included three interactions (treatment; time; randomization group) using restricted maximum likelihood estimation.
For the analysis of paired data, such as the levels of HRDS, we used the Wilcoxon signed-rank test. To compare the rates of treatment responses and remissions between the two treatments and using the paired data structure, an exact binomial test was used (and corresponding odds ratios calculated) as the number of discordant pairs was <20. Data are presented as mean±SD or 95% confidence intervals, or as median and interquartile range. Because this is the first in-human patient pilot study, no prior knowledge existed for adequate sample size determination. […] JMP Pro 11.1 and SAS 9.3 (SAS Institute, Cary, N.C.), as well as Prism 6.04 (GraphPad Software, Inc., La Jolla, Calif.) were used for the statistical analysis and graphing.

[2] = tested on: patients with treatment-resistant depression; test: Same crossover trial; Quick Inventory of Depressive Symptoms Self Report (QIDS-SR) scale; format: in vivo, human; details: Table 4
Description: as §1, §2, §3, §4

[N-]=[N+]=O [nitrous oxide]
odds ratio of remission, nitrous oxide vs placebo ([1]; 24 hours after treatment, 95% CI 0.31-28.8): 3.0
odds ratio of treatment response, nitrous oxide vs placebo ([1]; 24 hours after treatment, 95% CI 0.45-35.79): 4.0
patients with full remission (complete resolution of depressive symptoms, HRDS <7 points) ([1]; 24 hours, 20 patients): Three
patients with treatment response (reduction in depressive symptoms >50% on the HRDS) ([1]; 24 hours, 20 patients): four and Four
1 week HRDS scores compared to baseline ([1]; first treatment session, 1 week after treatment, in words): significantly lower than at baseline
antidepressant effect / reduction in depressive symptoms compared to placebo ([1]; in words): rapid and marked antidepressant effects; also recorded: significantly more pronounced reduction in depressive symptoms; also recorded: significantly stronger reduction in depressive symptoms
onset of antidepressant action ([1]; in words): within two hours
response on the QIDS scale: change 0 (patients) [2]: 10/20
response on the QIDS scale: change of 1 level, first arrow (P00003, presumably worse) (patients) [2]: 2/20
response on the QIDS scale: change of 1 level, second arrow (P00004, presumably better) (patients) [2]: 3/20
response on the QIDS scale: change of 2 levels, second arrow (P00004, presumably better) (patients) [2]: 5/20
